Data published in paper PMC9865193, “Improvement of the Chemical Reactivity of Michael Acceptor of Ethacrynic Acid Correlates with Antiproliferative Activities” (Molecules, 2023).

Tests used:
Format in all cases: cell-based, human
A549 cells = experiment: MTS cell growth inhibition assay, A549; conditions: ratio of IC50 MRC5/IC50 A549
Method: (§1) Moreover, in order to evaluate the safety index, their effect on the proliferation of human lung fibroblasts (MCR5) as a normal cell line was also studied.
(§2) All cancer cell lines (HCT116, A549, MCF7, PC3, U87-MG, SKOV3, and MRC5) were obtained from the European Collection of Cell Culture (ECACC, Salisbury, UK) or from the American Type Culture Collection (Rockville, MD, USA) and were cultured according to the supplier’s instructions. Human HCT-116 colorectal carcinoma, MCF7 breast adenocarcinoma, PC3 prostate adenocarcinoma, A549 lung carcinoma, and SK-OV-3 ovary carcinoma were grown in Gibco McCoy’s 5A supplemented with 10% fetal calf serum (FCS) and 1% glutamine. HL60 myelogenous leukemia cells were grown in RPMI 1640 supplemented with 10% fetal calf serum (FCS) and 1% glutamine. U87-MG glioblastoma and human MRC-5 cells were grown in Gibco medium DMEM supplemented with 10% fetal calf serum (FCS) and 1% glutamine. Cells were maintained at 37 °C in a humidified atmosphere containing 5% CO2. Cell growth inhibition was determined by an MTS assay according to the manufacturer’s instructions (Promega, Madison, WI, USA). Briefly, the cells were seeded in 96-well plates (2.5 × 10^3 cells/well) containing 100 μL of growth medium. […] One Solution Reagent was added for 2 h before recording absorbance at 490nm with a spectrophotometric plate reader. […]

MCF7 cells = experiment: MTS cell growth inhibition assay, MCF7; conditions: ratio of IC50 MRC5/IC50 MCF7
Method: as §1, §2

U87-MG cells = experiment: MTS cell growth inhibition assay, U87-MG; conditions: ratio of IC50 MRC5/IC50 U87-MG
Method: as §1, §2

HCT116 cells = experiment: MTS cell growth inhibition assay, HCT116; conditions: ratio of IC50 MRC5/IC50 HCT116
Method: as §1, §2

For `COc1cccc2c1C(=O)c1c(O)c3c(c(O)c1C2=O)C[C@@](O)(C(=O)CO)C[C@@H]3O[C@H]1C[C@H](N)[C@H](O)[C@H](C)O1` [Doxorubicin, doxorubicin, reference compound], the “Selectivity index (SI) MRC5/A549” value (A549 cells) was 0.70, the “Selectivity index (SI) MRC5/MCF7” value (MCF7 cells) was 0.33 and the “Selectivity index (SI) MRC5/U87-MG” value (U87-MG cells) was 0.40. The “Selectivity index (SI) MRC5/HCT116” value (HCT116 cells) was 0.44.
